This series in a line: soluble on expression in E. coli; label from the status in PepcDB or PDB records.

From the DeepSol protein solubility set come the findings set out here.

For the sequence “MGHHHHHHSHMTSFQEVPLQTSNFAHVIFQNVAKSYLPNAHLECHYTLTPYIHPHPKDWVGIFKVGWSTARDYYTFLWSPMPEHYVEGSTVNCVLAFQGYYLPNDDGEFYQFCYVTHKGEIRGASTPFQFRASSPVEELLTMEDEGNSDMLVVTTKAGLLE”, the “soluble on expression in E. coli” value was “soluble”.
On to “MQGSVTEFLKPRLVDIEQVSSTHAKVTLEPLERGFGHTLGNALRAILLSSMPGCAVTEVEIDGVLHEYSTKEGVQEDILEILLNLKGLAVRVQGKDEVILTLNKSGIGPVTAADITHDGDVEIVKPQHVICHLTDENASISMRIKVQRGRGYVPASTRIHSEEDERPIGRLLVDACYSPVERIAYNVEAARVEQRTDLDKLVIEMETNGTIDPEEAIRRAATILAEQLEAFVDLR”, for which the “soluble on expression in E. coli” value is “soluble”.
